Bounds are passed on as bounds.

The subject of the experiment is PC-3 tumors. The experiment is described as follows: PC-3 xenograft in nude mice.

A word on the TGI: it is how far tumour growth fell short of that in controls. Read a high TGI as a stronger effect on the tumour. For `CC(=O)O[C@@]12CO[C@@H]1C[C@H](O)[C@@]1(C)C(=O)[C@H](O)C3=C(C)[C@@H](OC(=O)[C@H](O)[C@@H](NC(=O)OC(C)(C)C)c4ccccc4)C[C@@](O)([C@@H](OC(=O)c4ccccc4)[C@H]21)C3(C)C` [Docetaxel, reference compound], the TGI was 84% (IV 10 mpk day 1 and 9, day 19); > 100% (IV 20 mpk day 1 and 9, day 19, 20 mg/kg).

For the origin of these results see patent US10865196B2, “Compounds for treatment of cancer” (University of Tennessee Research Foundation, priority 2008, dated 2020).
